# Binding of CDR-mutated scFvs to a peptide of the spike HR2 region

Data: MIT Lincoln Laboratory AlphaSeq set, Li et al. 2023, doi:10.1038/s41467-023-39022-2, as distributed in FLAb.

Target peptide (SARS-CoV-2 spike, HR2 region): PDVDLGDISGINAS

Parent: Ab-14, a human scFv built as VH, a 15-residue (Gly4Ser)3 linker, VL. Only the CDRs of the light chain vary.
VH: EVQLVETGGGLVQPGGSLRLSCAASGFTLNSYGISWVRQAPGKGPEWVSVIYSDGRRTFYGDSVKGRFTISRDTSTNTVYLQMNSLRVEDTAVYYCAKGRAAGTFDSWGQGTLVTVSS
VL: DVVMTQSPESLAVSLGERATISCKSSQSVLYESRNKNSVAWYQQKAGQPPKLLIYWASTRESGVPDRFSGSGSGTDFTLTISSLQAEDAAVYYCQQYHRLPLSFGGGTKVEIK

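Phage display of a naive human antibody library on the peptide gave the parent. This is the validation round: designs drawn from the data on random variants, tested in the same kind of assay. Group labels follow the data file (Ctrl: baseline library sampled from a position-specific scoring matrix, with some repeated check sequences; GP: Gaussian process model; HC: hill climbing; Gen: genetic algorithm; Gibbs: Gibbs sampling; a sequence that several methods proposed may carry one label only). Affinity was read by AlphaSeq, a pooled yeast mating assay with surface-displayed partners. Mating (16 h, 30 °C) was followed by selection of diploids and sequencing of their barcodes. Each replicate has its own calibration line, from reference interactions of the BCL2 family. Each pool was mated in six replicate cultures.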

Each variant is given by its three light chain CDRs, as the data file delimits them; those of the parent are KSSQSVLYESRNKNSVA, WASTRES, QQYHRLPLS. Variants here have at most six changes. The read-out is the apparent dissociation constant on a log10 scale (nM): the lower, the stronger. "nd" marks a missing value. The strain was present, yet no cells mated with the target were sequenced in that replicate, which points to weak or no binding.

* KSMQSVLYESRNKNSVA / EASTRES / QQYHRLPLS [Ctrl] -> 0.00, 0.22, -0.06, -0.19, -0.37, 0.35
* KSSQQVLGESRNMNSVA / NASTREE / QQYHRLPLS [GP_Gibbs] -> 0.32, 0.23, 0.07, 0.16, 0.09, 0.13
* KVSQSDLYQSRNKNSVA / EASTRES / QQYHRLPLS [GP_Gen] -> 0.12, -0.32, -0.35, -0.42, -0.30, -0.14
* HLSDSMLYESRNKNSVA / NASTRES / QQYHRLPLN [GP_HC] -> 0.19, 0.05, -0.06, -0.06, -0.04, 0.23
* KSSQSVVYASRNKNSVA / WASTLQS / QQYHRLPLS [Ctrl] -> nd, nd, nd, nd, nd, nd
* KSSQSWLHESRNENSVA / SASTRES / QQYHRMPLS [Ctrl] -> 0.36, 0.29, 0.23, 0.11, 0.24, 0.27
* KLQQSVEYESRNKNSVA / NASTRMS / QQYHRLPLS [GP_Gen] -> 0.19, 0.19, 0.15, 0.26, 0.07, 0.31
* KLSQSWLYESRNKNNVA / QASTRES / QQYHRLPLS [GP_Gen] -> 0.05, -0.22, -0.21, -0.24, -0.28, -0.11
* KLSQSFLYESRNKNSVA / EASTREM / QQYHRLPLS [GP_Gen] -> -0.10, -0.49, -0.54, -0.35, -0.27, 0.09
* KLPNSTLYESRQKNSVA / DASTRES / QQYHRLPLS [GP_HC] -> -0.07, -0.25, -0.77, -0.09, -0.12, -0.24
* KLMQSVLYESRNKNSVA / NASTREQ / QQYHRLPLS [GP_Gen] -> -0.24, -0.28, -0.40, -0.45, -0.25, 0.04
* KSPQSHDYGSRNKNSVA / NASERES / QQYHRLPLS [GP_Gibbs] -> 0.16, 0.19, 0.25, 0.01, -0.01, 0.06
* MSSQSVLYESRNKNSVA / WASTRTS / QQYHRLPLS [Ctrl] -> 2.83, 2.08, 2.27, 1.12, 2.10, 2.06
* KSSISYLYESRNLNSVA / EASTREQ / QQYHRLPLS [GP_HC] -> 0.30, 0.55, 0.08, 0.25, 0.47, 0.25
* KDSQSVLYESRGANSVA / FASTRES / QQYHRLPLS [Ctrl] -> 1.23, 1.41, nd, 1.55, 1.47, nd
* KLSQSVTYNSRDKNSVA / WASTRES / QQYHRLPLS [Ctrl] -> nd, 2.60, nd, nd, 2.40, nd
* KLSQSFLYESRNKNSVA / EASTRLS / QQYHRLPLS [GP_Gen] -> 0.23, 0.29, -0.32, -0.28, 0.04, 0.13
* KLPQSKLYESRNKNSVA / NASTRES / QQYHRLPLS [GP_Gen] -> 0.08, -0.14, 0.01, -0.11, -0.21, 0.05
* KSSQSYGYESRNKNSVA / NASTRES / QQYHRLPLS [Ctrl] -> -0.20, -0.09, -0.09, -0.47, -0.37, -0.30
* KSSQDVLYESRNANSVA / WASTRES / QQYHRLPLS [Ctrl] -> 2.14, 2.07, 1.57, 3.79, 1.20, 1.26
* KLPQSQGYESRNKNSVA / NASTRES / QQYHRLPLS [GP_Gen] -> 0.30, 0.24, 0.34, 0.38, 0.26, 0.15
* YSSQSVLGESRAKNSVA / WASTRES / QQYHRLPLS [Ctrl] -> 2.48, 1.50, 1.16, nd, 2.59, 1.81
* KLSQSYLYDSRNKNSVA / NASTRES / QQYHRLPLS [GP_HC] -> -0.16, 0.30, -0.27, 0.04, -0.32, 0.03
* KLSQSVLMESRMKNSVA / DASQREE / QQYHRLPLS [GP_Gibbs] -> -0.15, -0.27, -0.23, -0.38, -0.21, -0.19
* KLSQSDLYESRNKNSVA / EASTREV / QQYHRLPLS [GP_Gen] -> -0.01, 0.16, 0.21, -0.26, 0.27, 0.07
* KLSQSVEVLSRNKNSVA / NASTREM / QQYHRLPLS [GP_Gibbs] -> 0.34, -0.01, -0.09, 0.04, 0.10, 0.00
* KLSQSWLYESRNKNSVA / NASTRED / QQYHRLPLS [GP_Gen] -> -0.28, -0.74, -0.62, -0.73, -0.45, -0.38
* KMSQSVLYESRNKNSVA / WASIRES / QQYHRLPLS [Ctrl] -> 1.69, 1.74, 3.32, 1.18, 2.70, 1.52
* KSDQHVLYESRNKNSVA / WASTRES / QRYHRLPLS [Ctrl] -> nd, nd, nd, nd, nd, nd
* KSSQSVMYESRNKNSVA / WASTRVS / QQYHRLPLS [Ctrl] -> 2.42, 1.88, 2.18, 2.01, 1.32, 2.43
* KLSQSVLYESRNKNNVA / GASQRES / QQYHRLPLS [GP_Gen] -> -0.29, -0.40, -0.58, -0.49, -0.62, -0.48

Excerpt, the first 5 entries:

CDR-L1	CDR-L2	CDR-L3	group	log10 Kd, replicates
KSMQSVLYESRNKNSVA	EASTRES	QQYHRLPLS	Ctrl	0.00, 0.22, -0.06, -0.19, -0.37, 0.35
KSSQQVLGESRNMNSVA	NASTREE	QQYHRLPLS	GP_Gibbs	0.32, 0.23, 0.07, 0.16, 0.09, 0.13
KVSQSDLYQSRNKNSVA	EASTRES	QQYHRLPLS	GP_Gen	0.12, -0.32, -0.35, -0.42, -0.30, -0.14
HLSDSMLYESRNKNSVA	NASTRES	QQYHRLPLN	GP_HC	0.19, 0.05, -0.06, -0.06, -0.04, 0.23
KSSQSVVYASRNKNSVA	WASTLQS	QQYHRLPLS	Ctrl	nd, nd, nd, nd, nd, nd

A sequence measured in both rounds can read differently, since the two assays cover different ranges. Empty control strains, which show no peptide, gave a signal in 4% of pairings with all light chain designs; the median was 2.64 and 95% of these signals were weaker than 1.59. No background was subtracted. The authors' rule: three or more of the six replicates give a measured affinity, fewer mean a poor binder.